From patent US20210247384A1

Target: Angiotensin II receptor type 1 (AT1) (UniProt P30556)
Assay: cell-based or functional assay

tau of the fluorescence response of the BArr 5A arrestin biosensor, HEK293T cells co-transfected with the receptor, time-lapse imaging: 119 s
Substance: biased agonist SII (peptide)
